# Values of other authors as cited in US20150030540A1 (Eli Lilly and Company, priority 2008, published 2015).
# The chains behind the UniProt entries cited, without tags or fusion partners. Residues count along the entry.
# UniProt P05067, 672-713 limits assumed: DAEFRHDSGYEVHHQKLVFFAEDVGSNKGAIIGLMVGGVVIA
# Biological target: T1, Aβ monomer (Homo sapiens, UniProt P05067)
# T1 construct: Aβ monomer
# Conditions: read-out: Binding Affinity IC50; cited from earlier work
compound,measurement,value
Cc1ccc2c(c1)sc(-c1ccc(N(C)C)cc1)[n+]2C [Thioflavin T],IC50,> 500 µM
